Values quoted from earlier work, collected in patent US10376598B2, “Targeted therapeutics” (Madrigal Pharmaceuticals, Inc., priority 2013, dated 2019).

Settings: in vivo; read-out: unbound plasma IC50 for saturation of BBB efflux; cited from earlier work

SMILES: CCN1CCN(Cc2ccc(Nc3ncc(F)c(-c4cc(F)c5nc(C)n(C(C)C)c5c4)n3)nc2)CC1.CS(=O)(=O)O [LY2835219, 2-Pyrimidinamine, N-[5-[(4-ethyl-1-piperazinyl)methyl]-2-pyridinyl]-5-fluoro-4-[4-fluoro-2-methyl-1-(1-methylethyl)-1H-benzimidazol-6-yl]-, methanesulfonate (1:1)]
- IC50: ~95 nM
